Laboratory results from patent US5552382A, “Gramicidin as a spermicide against sexual transmission of HIV” (priority 1994, dated 1996).

How the values were obtained:
MT-4 lymphocytes = conditions: 10 pg to about 10 ng
[1] = cited from earlier work

gramicidin
Cytotoxicity at the IC50 to IC100 amounts (MT-4 lymphocytes): without any evidence of attendant cytotoxicity
Solubility in ethanol ([1]; ethanol): freely soluble
Solubility in water, acids, and alkalies ([1]; water, acids, alkalies): insoluble
